Tested on: HEL cells
Assay: Cell proliferation assay
Assay type: cell-based, human

For `O=C(Nc1c[nH]nc1-c1nc2ccc(CN3CCOCC3)cc2[nH]1)NC1CC1` [AT9283], the “effect on proliferation of HEL cells” value (0.3 or 1 μM, 72 hrs) was “reduced proliferation of HEL cells very effectively” and the IC50 (Homo sapiens, HEL, 72 h, read-out: IC50 values, Proliferation assay) was 29 ± 5 nM.

Reference: article PMC3822589 (Journal of Cellular and Molecular Medicine, 2013)
